Experimental data reported in patent publication EP4831212A1, “FIBROBLAST ACTIVATION PROTEIN-ALPHA-RESPONSIVE HYDROLYSIS-INDUCED CHARGE-REVERSAL POLYMER-DRUG CONJUGATE, PREPARATION METHOD THEREFOR AND USE THEREOF” (dated 2026).

Test system: 4T1 breast cancer tumor-bearing mice
Assay: Tumor inhibition assay
Details: tail vein injection, days 1, 4, 7, 10 and 13, versus PBS blank group
Procedure: (§1) The tumor inhibitory effect of MMAE-conjugated polymers in 4T1 breast cancer tumor-bearing mice was investigated. The assay was initiated when the tumor volume reached approximately 100 mm^3. MMAE (free drug) and two drug-conjugated polymer injections were prepared. A PBS buffer was used as a blank group. The drugs were administered via tail vein injection at an MMAE-equivalent dose of 0.2 mg/kg, with an injection volume of 100 µL per mouse each time. The mice were administered on days 1, 4, 7, 10 and 13 for a total of five times. On days 1, 3, 5, 7, 9, 11, 13 and 15, the body weights of the mice were weighed, and the tumor volumes of the mice were measured.
as §1, with “CPT-conjugated” for “MMAE-conjugated”, “The CPT free drug” for “MMAE (free drug)”, “a CPT-equivalent” for “an MMAE-equivalent”, “5” for “0.2”
as §1, with “of CPT-conjugated” for “of MMAE-conjugated”, “approximately 70” for “approximately 100”, “mm^3. The CPT free drug” for “mm^3. MMAE (free drug)”, “at a CPT-equivalent” for “at an MMAE-equivalent”, “of 5” for “of 0.2”

| SMILES | tumor inhibitory effect (CPT-equivalent dose of 5 mg/kg, start at tumor volume approximately 70 mm^3, FIG. 10) | tumor inhibitory effect (CPT-equivalent dose of 5 mg/kg, start at tumor volume approximately 100 mm^3, FIG. 7) | tumor inhibitory effect (MMAE-equivalent dose of 0.2 mg/kg, start at tumor volume approximately 100 mm^3, FIG. 3) |
| --- | --- | --- | --- |
| CC[C@@]1(O)C(=O)OCc2c1cc1n(c2=O)Cc2cc3ccccc3nc2-1 | inhibit the growth of the tumor to a certain degree | inhibits the growth of the tumor to a certain extent | – |
| CC[C@H](C)[C@@H]([C@@H](CC(=O)N1CCC[C@H]1[C@H](OC)[C@@H](C)C(=O)N[C@H](C)[C@@H](O)c1ccccc1)OC)N(C)C(=O)[C@@H](NC(=O)[C@@H](NC)C(C)C)C(C)C | – | – | inhibit the growth of the tumor to a certain degree |
